The values that follow are results of earlier work, collected in patent US12708677B2, “Contrast agents, methods for preparing contrast agents, and methods of imaging” (Georgia State University Research Foundation, Inc., priority 2008, dated 2026).

For this series the following is noted: B0 0.47 T, based on references; cited from earlier work.

Take Poly-lysine: the r1 was 13 mM⁻¹ s⁻¹.
